From US20030152646A1, “Method of treating conditions caused by activated microglia” (priority 2001, published 2003) come the findings set out here.

This is a selection: effects in other tests are not listed, and their absence says nothing.

The data set concerns microglia-neuron co-cultures. Description: Neuron survival in co-cultures treated with the NO donor SNP. Conditions: SNP 300 μM, 48 hr.

Take sodium nitroprusside: the neurons killed result was “less than 50%”.
